Assay: antinociceptive effect on the hot plate test after intrathecal injection, rats
Conditions: rat

SMILES: CN1CC[C@]23c4c5ccc(O)c4O[C@H]2[C@@H](O)C=C[C@H]3[C@H]1C5.O=S(=O)(O)O
- optimal CDEX concentration yielding the most significant augmentation of antinociceptive effect: 0.2%

Reference: patent publication US5180716A, “Cyclodextrin complexes for neuraxial administration of drugs” (The Regents of the University of California, priority 1990, dated 1993)
